This note sets out measurements from US10377677B2, “Fertilizer compositions and methods of making and using the same” (dated 2019).

For the data set the following is noted: stabilizer materials each at 25 wt. %, 5 in diameter tube, 200 g booster.

For Al(OH)3, the “Witness Plate” value is “perf”.
